What was measured:
[1] = system: parental and PKC-inhibitor refractory uveal melanoma cell lines; test: Inhibition of cell proliferation of parental and PKC-inhibitor refractory uveal melanoma cell lines; format: cell-based
[2] = system: uveal melanoma cell line 92-1; test: Inhibition of cell proliferation of uveal melanoma cell line 92-1; format: cell-based
[3] = system: several cancer cell lines; test: Inhibition of cell proliferation of several cancer cell lines; format: cell-based
[4] = system: uveal melanoma cell line MP41; test: Inhibition of cell proliferation of uveal melanoma cell line MP41; format: cell-based
[5] = system: uveal melanoma and non-small cell lung cancer cell lines

Measured: inhibition of cell proliferation

CSCC[C@H](NC(=O)c1ccn(S(C)(=O)=O)c1)C(=O)Nc1nc(-c2cccc(-c3ccncc3)c2)cs1 [Compound 67, (S)-1-(methylsulfonyl)-N-(4-(methylthio)-1-oxo-1-((4-(3-(pyridin-4-yl)phenyl)thiazol-2-yl)amino)butan-2-yl)-1H-pyrrole-3-carboxamide]
inhibition of cell proliferation: all assays above

Reference: US20230079819A1, “COMPOUNDS AND USES THEREOF” (Foghorn Therapeutics Inc., priority 2019, published 2023)
